These are literature values, as cited in patent US9072786B2, “Method of manufacturing an implantable device” (Endo Pharmaceuticals Solutions Inc., priority 2008, dated 2015).

The conditions of series [1]: hydrophilic-lipophilic balance of the surfactant.
For series [2] the following is noted: concentration of surfactant at which micelles form.

For the substance “D-α-tocopheryl (Vitamin E) polyethylene glycol 1000 succinate [Vitamin E TPGS]”, the HLB in series [1] was 13. For the same substance, the “CMC” value in series [2] was 0.1 mM.
